Data published in PubChem BioAssay AID878 (University of Pittsburgh Molecular Library Screening Center, 2007).
The entries are a selection whose mix differs from that of the whole data set. Activity calls are given as the source filed them.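 Rule for the calls: active = activation of at least 50% relative to the plate's high and low controls in the primary single-dose screen; inactive = activation below 50%.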

Experiment: compounds producing H2O2 with reducing agent – biochemical, NIH compound library profiling, artefact control for MLSCN library redox annotation, primary screen (AID 878);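 note: compound incubated with DTT at 0.8 mM final as the reducing agent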
Conditions: DTT-dependent redox cycling H2O2, phenol red/HRP absorbance; at 10 µM; active compounds read high; 100% = 100 µM peroxide control, 0% = buffer

Structure (SMILES)	activation
COc1ccc(C(=O)NCC2(N3CCCCC3)CCCCC2)c(OC)c1OC	inactive: -0.53%
O=C(NCC1(N2CCOCC2)CCCCC1)c1cc2ccccc2o1	inactive: -16%
CCOC(=O)N1CCC(Nc2ccc(OC)cc2)CC1	inactive: -1.7%
O=C(OC1CN2CCC1CC2)C1c2ccccc2Oc2ccccc21 (stereo not given)	inactive: -0.1%
COc1ccc(NC2CCN(CCc3ccccc3)CC2)c(OC)c1	inactive: -0.15%
O=C(NCC1(N2CCCCC2)CCCCC1)c1cccc([N+](=O)[O-])c1	inactive: -0.04%
N#CC1(Nc2ccccc2)CCN(CCc2ccccc2)CC1	inactive: -0.55%
CN1CCN(CCOC(=O)C(O)(c2ccccc2)c2ccccc2)CC1	inactive: -0.4%
COc1ccc(NC2CCN(C(=O)OC(C)(C)C)CC2)cc1	inactive: -1.34%
O=C(NCC1(N2CCOCC2)CCCCC1)c1cc(=O)[nH]c2ccccc12	inactive: 0.58%
COc1ccc(CN(CCCl)CCCl)cc1Cl	inactive: 0.28%
CN(C)c1cccc(C(=O)NCC2(N3CCCCC3)CCCCC2)c1	inactive: -1.98%
CC(C)c1ccc(NC2CCN(C(=O)OC(C)(C)C)CC2)cc1	inactive: -0.28%
CN1CCC(Nc2cccc(F)c2)CC1	inactive: 2.19%
COc1ccc(C(=O)NCC2(N3CCOCC3)CCCCC2)cc1OC	inactive: -0.08%
N/C(=N\O)c1c(N)no[n+]1[O-]	inactive: -0.94%
O=C(OC1CN2CCC1CC2)C1c2ccccc2C=Cc2ccccc21 (stereo not given)	inactive: -0.24%
N#Cc1ccc(C(=O)NCC2(N3CCCCC3)CCCCC2)cc1	inactive: -0.41%
c1ccc(CN2CCC(Nc3ccccc3)CC2)cc1	inactive: 2.6%
CCN1CCC(Nc2cccc(F)c2)CC1	inactive: 0.47%
CN(C)c1ccc(C(=O)NCC2(N3CCCCC3)CCCCC2)cc1	inactive: -0.22%
CCOc1ncccc1C(=O)NCC1(N2CCOCC2)CCCCC1	inactive: -0.62%
CC(C)(C)OC(=O)N1CCC(Nc2ccccc2)CC1	inactive: -0.13%
CCC(CO)(C(=O)OC1CN2CCC1CC2)c1ccccc1 (stereo not given)	inactive: 1.32%
COc1cc(OC)cc(C(=O)NCC2(N3CCOCC3)CCCCC2)c1	inactive: -1.24%
